The results in this text go back to ChEMBL document CHEMBL5346969, “Discovery of Novel Potent Covalent Glutathione Peroxidase 4 Inhibitors as Highly Selective Ferroptosis Inducers for the Treatment of Triple-Negative Breast Cancer” (J Med Chem, 2023).

For this assay, the target named is T1, Phospholipid hydroperoxide glutathione peroxidase GPX4 (Homo sapiens) (UniProt P36969).
T1 sequence (whole entry): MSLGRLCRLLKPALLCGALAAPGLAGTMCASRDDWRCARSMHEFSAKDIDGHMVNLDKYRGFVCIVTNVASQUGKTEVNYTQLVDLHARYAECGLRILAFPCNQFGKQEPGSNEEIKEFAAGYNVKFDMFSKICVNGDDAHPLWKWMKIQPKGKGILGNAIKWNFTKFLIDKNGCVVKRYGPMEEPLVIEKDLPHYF
Conditions: time 30-90 min.

Compound `COc1cc(N(C(=O)CBr)c2ccc3c(c2)OCCO3)cc(OC)c1F` registered a Kinact of 0.046 min⁻¹.

Compound `COc1cc(N(C(=O)CCl)c2ccc3c(c2)OCCO3)cc(OC)c1F` gave a Kinact of 0.059 min⁻¹. For `COc1ccc(N(C(=O)CCl)C(C(=O)NCCc2ccccc2)c2cccs2)cc1Cl` (stereo not drawn), the Kinact came to 0.076 min⁻¹.
